Measured values published in ChEMBL document CHEMBL1136572, “Piperazine-based CCR5 antagonists as HIV-1 inhibitors. III: synthesis, antiviral and pharmacokinetic profiles of symmetrical heteroaryl carboxamides” (Bioorg Med Chem Lett, 2003).

Chains of the proteins cited; added tags and fusions are not shown.
UniProt P51681, whole entry: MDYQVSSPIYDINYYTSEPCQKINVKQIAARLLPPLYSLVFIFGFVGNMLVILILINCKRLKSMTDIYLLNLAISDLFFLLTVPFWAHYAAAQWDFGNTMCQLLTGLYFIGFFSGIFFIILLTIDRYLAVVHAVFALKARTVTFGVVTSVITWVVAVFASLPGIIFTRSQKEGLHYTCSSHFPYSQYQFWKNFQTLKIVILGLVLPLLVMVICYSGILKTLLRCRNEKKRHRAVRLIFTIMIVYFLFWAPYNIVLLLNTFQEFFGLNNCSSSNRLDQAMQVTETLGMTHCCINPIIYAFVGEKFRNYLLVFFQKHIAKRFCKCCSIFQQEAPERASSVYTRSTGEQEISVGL

Biological target: C-C chemokine receptor type 5 (Homo sapiens, UniProt P51681)
Experiment: Ability of compound to inhibit [125I]-labeled RANTES binding to the CCR5 receptor expressed in membrane preparations from CHO cells
Format: cell-based, Cricetulus griseus

For Cc1ncnc(C)c1C(=O)N1CCC(C)(N2CCN([C@@H](C)c3ccc(C(F)(F)F)cc3)[C@@H](C)C2)CC1, the Ki was 3 nM.
